Screens from PubChem BioAssay.
DT40 TDP1 no CPT = qHTS for Inhibitors of human tyrosyl-DNA phosphodiesterase 1 (TDP1): qHTS in cells in absence of CPT; DT40 Tdp1-/- hTDP1 cells, no CPT, ATP luminescence, 48 h; Potency, µM (titrated, usually from 46.2 µM), for inactives: at the top dose activity change, negative = growth inhibition, most hits filed as inhibitors; 420,000 compounds, 15% hits; also: potency is read from the fitted curve at half-maximal effect; % is scaled to controls: 0 for no effect and ±100 for the full control effect; nearly all actives have a fitted effect of over 55% in size
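Luminescent ATP content (CellTiter-Glo) served as the growth readout. Knockout chicken DT40 cells expressing human TDP1 were exposed to compounds without camptothecin for a minimum 48 hr at 37 °C.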
TDP1 cell CPT = growth inhibition of DT40 Tdp1-/-;hTDP1 cells with camptothecin (screen for TDP1 inhibitors). chicken DT40 Tdp1-/-;hTDP1 cells + 20 nM CPT, ATP luminescence, 48 h. AID 686979. 420,000 compounds, 12% hits. Potency, µM (top dose mostly 46.2 µM), without a hit: at the top dose activity change, negative = growth inhibition, hits mostly inhibitors; also: potency is read from the fitted curve at half-maximal effect; % is scaled to controls: 0 for no effect and ±100 for the full control effect; nearly all actives have a fitted effect of over 55% in size
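Chicken DT40 Tdp1-/- cells complemented with human TDP1, 400 cells/well, exposed to compounds plus 20 nM camptothecin for at least 48 h at 37 C; viability read as ATP content by CellTiter-Glo luminescence.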
uPA generation = inhibitors of cell surface uPA generation | cell surface uPA generation assay, qHTS | Potency, µM (doses to about 38.3 µM), without a hit: top-dose activity change, negative = inhibition, usual class: inhibitors | 330,000 compounds, 0.31% hits | AID 540303; active = well fitted inhibition curve with a large enough effect; inconclusive = small, poorly fitted or top-dose-only effect; inactive = no such curve, though single readings can be large or run the other way; tested in mouse RAW 264.7 cells; also: potency is read from the fitted curve at half-maximal effect; % is scaled to controls: 0 for no effect and ±100 for the full control effect; nearly all actives have a fitted effect of over 55% in size
TDP1 inh = blocks human tyrosyl-DNA phosphodiesterase 1. recombinant TDP1, AlphaScreen DNA substrate cleavage. Potency, µM (highest dose often 130 µM), without a hit: at the highest dose activity change, negative = inhibition, most hits filed as inhibitors. 350,000 compounds, 0.28% hits. AID 485290; also: potency is read from the fitted curve at half-maximal effect; % is scaled to controls: 0 for no effect and ±100 for the full control effect; nearly all actives have a fitted effect of over 40% in size
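Steps: enzyme plus compound, 15 min RT; add biotin/phosphotyrosine-FITC oligonucleotide (15 nM final), react 5 min; add donor/acceptor beads (10 ug/ml final), 10 min; read AlphaScreen. Tdp1 at 1 nM final.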
miR-21 reporter = miR-21 reporter, rising signal | HeLa miR-21 FLuc reporter, luciferase, 48 h | Potency, µM (doses to about 38.3 µM), inactives show at the top dose reporter change, positive = more light | 340,000 tested, under 10 active | AID 2288; active = well fitted rising curve with a large enough effect; inconclusive = small, poorly fitted or top-dose-only effect; inactive = no such curve, though single readings can be large or run the other way;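 note: % of control where 0% means no effect; miR-21 action dims this reporter so a rising signal means less miR-21 action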
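Using DMEM plus 10% FBS, HeLa miR-21-FLuc cells are incubated with test compounds (final up to about 40uM) for 48 hours; firefly luciferase signal is then imaged following reagent-mediated lysis.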
Starred values were filed as active, the others as inactive; ? = inconclusive; nt = no result given; [ ] = another dose, or the depositor's remark. Rows were chosen to be rich in hits. Some 16% of all compounds tested hit in one or more screens of this group. Unless noted, calls follow the shape of the dose curve; as a rule, active = well fitted curve in the direction sought with a large enough effect; inconclusive = small, poorly fitted or top-dose-only effect, or another doubt; inactive = no such curve, though single readings can be large; an effect the other way counts as inactive or inconclusive.

Every second line gives: DT40 TDP1 no CPT, TDP1 cell CPT, uPA generation, TDP1 inh, miR-21 reporter
Cn1c2ccccc2c2ccc3c(c21)C(=O)C=CC3=O
    0.52µM*, 0.41µM*, -3%, nt, nt
COc1ccc2c(c1)c1ccc3c(c1n2C)C(=O)C=CC3=O
    0.52µM*, 0.73µM*, ?, 6%, 7%
Cc1ccc2c(c1)c1ccc3c(c1n2C)C(=O)C=CC3=O
    0.58µM*, 0.52µM*, ?, 10%, 5%
CCN(CC)c1ccc(NC(=O)COC(=O)COc2ccccc2[N+](=O)[O-])cc1
    -7%, -6%, -7%, 8%, -1%
O=C1N[C@@H](Cc2cn(S(=O)(=O)c3ccc([N+](=O)[O-])cc3)c3ccccc23)C(=O)N[C@H]1Cc1ccccc1
    ?, 21µM*, -21%, nt, nt
Cc1ccccc1CCNC(=O)c1cc2cc(S(=O)(=O)N3CCCCC3)ccc2n1C
    18µM*, 10µM*, nt, 5%, -1%
Cn1c(C(=O)NCc2ccccc2F)cc2cc(S(=O)(=O)N3CCCCC3)ccc21
    ?, ?, nt, 3%, -5%
CN(C)c1ccc(CNC(=O)c2cc3cc(S(=O)(=O)N4CCCCC4)ccc3n2C)cc1
    ?, ?, nt, 8%, 12%
Cn1c(C(=O)NCc2cccc(F)c2)cc2cc(S(=O)(=O)N3CCCCC3)ccc21
    23µM*, ?, nt, 5%, 20%
CCOc1ccc(CNC(=O)c2cc3cc(S(=O)(=O)N4CCCCC4)ccc3n2C)cc1
    16µM*, 18µM*, nt, 3%, 22%
Cc1cccc(CNC(=O)c2cc3cc(S(=O)(=O)N4CCCCC4)ccc3n2C)c1
    18µM*, ?, nt, 0%, 10%
CCCn1nc(C(=O)NCC(C)(C)N2CCOCC2)c2ccccc2c1=O
    -15%, -21%, 4%, 2%, 0%
CCOc1ccc(C(=O)NCC(c2cccs2)N2CCOCC2)cc1 (centres undefined)
    -2%, -14%, 2%, -2%, nt
O=C(NCC(c1cccs1)N1CCOCC1)c1cc(-c2ccc(F)cc2)nc2ccccc12 (centres undefined)
    16µM*, ?, -4%, 4%, 9%
CCn1nc(C(=O)NCC(c2cccs2)N2CCOCC2)c2ccccc2c1=O (centres undefined)
    21µM*, 15µM*, 2%, 3%, 3%
CCCCn1nc(C(=O)NCC(c2cccs2)N2CCOCC2)c2ccccc2c1=O (centres undefined)
    21µM*, ?, 11µM*, 1%, nt
COc1ccc(NC(=O)c2cc3c(=O)n(Cc4cccs4)ccc3nc2C)c(OC)c1
    ?, 16µM*, nt, 7%, -2%
CCc1ccc(CNC(=O)c2cc3c(=O)n(Cc4cccs4)ccc3nc2C)cc1
    23µM*, 18µM*, nt, 7%, -9%
Cc1nc2ccn(Cc3cccs3)c(=O)c2cc1C(=O)NCc1ccc(Br)cc1
    ?, ?, nt, 1%, 16%
CCOc1ccc(CNC(=O)c2cc3c(=O)n(Cc4cccs4)ccc3nc2C)cc1
    ?, 9.2µM*, nt, 1%, -3%

More compounds:
Labels used below – A = DT40 TDP1 no CPT; B = TDP1 cell CPT; C = uPA generation; D = TDP1 inh; E = miR-21 reporter
Cc1ncc([N+](=O)[O-])n1Cc1cccc(F)c1
  A: 17%; B: -6%; C: -2%; D: 0%; E: -3%
COc1ccc(CC2(CO)CCN(CC3=CC[C@H]4C[C@@H]3C4(C)C)CC2)cc1
  A: 4%; B: -4%; C: -21%; D: 0%; E: 0%
COc1cccc(C2C(C(=O)Nc3ccc(Cl)cc3)=C(C)Nc3nc4ccccc4n32)c1 (centres undefined)
  A: -4%; B: 21µM*; C: nt; D: 2%; E: 1%
O=C(Nc1cccc(C(=O)O)c1)/C(=C\c1cccc([N+](=O)[O-])c1)NC(=O)c1ccc(Br)cc1
  A: -3%; B: 10%; C: nt; D: nt; E: nt
C=CCn1cccc(/C=C/C(=O)c2ccc(C(C)(C)C)cc2)c1=S
  A: 7.3µM*; B: 7.3µM*; C: -11%; D: 8%; E: ?
CCc1ccccc1NC(=S)N(CCN(C)C)C(C)c1cccnc1 (centres undefined)
  A: -2%; B: 1%; C: -1%; D: 3%; E: 3%
COc1cccc(CN2CCc3nc(Nc4ccc5c(c4)OCCO5)ncc3C2)c1OC
  A: 8.2µM*; B: 21µM*; C: nt; D: 11%; E: 9%
CC(C)CN1CCc2nc(Nc3ccc(F)cc3F)ncc2C1
  A: ?; B: -3%; C: nt; D: 4%; E: -60%
Fc1cccc(CN2CCc3nc(Nc4ccc5c(c4)OCCO5)ncc3C2)c1F
  A: 26µM*; B: ?; C: nt; D: 9%; E: 14%
COc1cccc(CN2CCOc3ccc(CN4C[C@@H](C)O[C@@H](C)C4)cc3C2)c1OC
  A: -8%; B: -1%; C: nt; D: nt; E: nt
C=CCC[C@@H](CCCCC)OC(=O)/C=C/[C@H](O)[C@@H](O)C[C@@H](O)CC=C
  A: 16µM*; B: ?; C: nt; D: nt; E: nt
C=CCCCCCCCCCCCC(O)CC(O)COC(C)=O (centres undefined) (tested in a mixture with another compound)
  A: -11%; B: -19%; C: nt; D: -6%[56.1 µM]; E: nt
C=CCC[C@H](CCCCC)OC(=O)/C=C/[C@@H](O)[C@H](O)C[C@@H](O)CC=C
  A: 18µM*; B: 18µM*; C: nt; D: nt; E: nt
CCCCC[C@H](O)/C=C/C=C\CCCCCCCCCC(=O)O
  A: nt; B: nt; C: nt; D: 7%; E: nt
CCCCNC(=O)O[C@@H]1C[C@@H]2CCN3C(=O)CCC[C@H]([C@H]1CC)[C@H]23
  A: 10µM*; B: 14µM*; C: 10%; D: nt; E: 0%
CC[C@@H]1[C@H]2CCCC(=O)N3CC[C@@H](C[C@@H]1OC(=O)Nc1ccccc1)[C@@H]23
  A: 11µM*; B: 11µM*; C: 6%; D: nt; E: 1%
CCCCNC(=O)O[C@H]1C[C@@H]2CCN3C(=O)CCC[C@H]([C@H]1CC)[C@H]23
  A: -7%; B: -6%; C: -2%; D: nt; E: 1%
CC[C@@H]1[C@H]2CCCC(=O)N3CC[C@@H](C[C@@H]1Nc1ccccc1)[C@@H]23
  A: 18µM*; B: ?; C: 1%; D: nt; E: 5%
CCCCCCCN(c1ccccc1)[C@@H]1C[C@H]2CCCC(=O)N3CC[C@@H](C1)[C@@H]23
  A: 10µM*; B: 12µM*; C: 1%; D: nt; E: nt
CCCCNC(=O)O[C@@H]1C[C@H]2CCCC(=O)N3CC[C@@H](C1)[C@@H]23
  A: -1%; B: 8%; C: -5%; D: nt; E: -4%

Quoted at random: two records from the list, in no set order.
Labels used below – A = DT40 TDP1 no CPT; B = TDP1 cell CPT; C = uPA generation; D = TDP1 inh; E = miR-21 reporter
CCCCNC(=O)O[C@@H]1C[C@H]2CCCC(=O)N3CC[C@@H](C1)[C@@H]23
  A: -1%; B: 8%; C: -5%; D: nt; E: -4%
C=CCC[C@H](CCCCC)OC(=O)/C=C/[C@@H](O)[C@H](O)C[C@@H](O)CC=C
  A: 18µM*; B: 18µM*; C: nt; D: nt; E: nt

The main list resumes with the three entries that preceded the break.
Labels used below – A = DT40 TDP1 no CPT; B = TDP1 cell CPT; C = uPA generation; D = TDP1 inh; E = miR-21 reporter
CC[C@@H]1[C@H]2CCCC(=O)N3CC[C@@H](C[C@@H]1Nc1ccccc1)[C@@H]23
  A: 18µM*; B: ?; C: 1%; D: nt; E: 5%
CCCCCCCN(c1ccccc1)[C@@H]1C[C@H]2CCCC(=O)N3CC[C@@H](C1)[C@@H]23
  A: 10µM*; B: 12µM*; C: 1%; D: nt; E: nt
CCCCNC(=O)O[C@@H]1C[C@H]2CCCC(=O)N3CC[C@@H](C1)[C@@H]23
  A: -1%; B: 8%; C: -5%; D: nt; E: -4%
O=C(c1ccc2c(c1)OCO2)N(c1ccc(F)cc1)C1C=CS(=O)(=O)C1 (centres undefined)
  A: -4%; B: -10%; C: 7%; D: nt; E: -5%
CC(C)=NNc1nc(-c2ccc([N+](=O)[O-])cc2)cs1
  A: 21µM*; B: ?; C: -1%; D: 5%; E: -1%
CC(=O)Nc1nc(-c2ccc([N+](=O)[O-])cc2)cs1
  A: ?; B: ?; C: -12%; D: -5%; E: -2%
C/C=C/C=N/Nc1nc(-c2ccc([N+](=O)[O-])cc2)cs1
  A: 23µM*; B: ?; C: -6%; D: 8%; E: 3%
Cc1ccc(-n2c(C)cc(C(=O)COc3c(CO)cc(F)cc3CO)c2C)cc1C
  A: 3.7µM*; B: 9.2µM*; C: 4%; D: 8%; E: 23%
Cc1cc(C(=O)COc2ccccc2Cl)c(C)n1-c1ccc2c(c1)OCO2
  A: 6.5µM*; B: ?; C: -9%; D: 6%; E: -12%
